Drawing on patent US20250084169A1, this text covers Emax and Fold (KD of rituximab / KD) for three substances.

Experiment [1] addresses human B cells (viable CD3- CD40+ CD21+ cells in PBMC; carry CD19 and CD20). The experiment in a line: flow cytometry on PBMC B cells, anti-human Fcγ-PE.
Experiment [2] deals with cynomolgus monkey B cells (in PBMC; carry CD19 and CD20). Briefly: flow cytometry on PBMC B cells, anti-human Fcγ-PE.
Experiment [3] addresses cynomolgus monkey Fc gamma receptor CD64 (cynomolgus monkey). The experiment in a line: BLI (Octet), cynomolgus FcγR on sensor.

As to human IgG1 isotype control (antibody), the Emax amounted to 3200 gMFI in experiment [1] and 2700 gMFI in experiment [2].

Substance “Tafasitamab-cxix (research grade biosimilar) (antibody)” registered a Fold (KD of rituximab / KD) in experiment [3] of 5.7 fold. As for “FMC59-S239D/I332E (huFMC63-S239D/I332E) (antibody)”, the Fold (KD of rituximab / KD) in experiment [3] came out at 10 fold.
